Laboratory results reported in BindingDB's records for doi:10.1073/pnas.88.17.7491 (Duke University, 1991).

Amino acid sequences for entries named in this document (tags omitted).
UniProt P21728, whole entry: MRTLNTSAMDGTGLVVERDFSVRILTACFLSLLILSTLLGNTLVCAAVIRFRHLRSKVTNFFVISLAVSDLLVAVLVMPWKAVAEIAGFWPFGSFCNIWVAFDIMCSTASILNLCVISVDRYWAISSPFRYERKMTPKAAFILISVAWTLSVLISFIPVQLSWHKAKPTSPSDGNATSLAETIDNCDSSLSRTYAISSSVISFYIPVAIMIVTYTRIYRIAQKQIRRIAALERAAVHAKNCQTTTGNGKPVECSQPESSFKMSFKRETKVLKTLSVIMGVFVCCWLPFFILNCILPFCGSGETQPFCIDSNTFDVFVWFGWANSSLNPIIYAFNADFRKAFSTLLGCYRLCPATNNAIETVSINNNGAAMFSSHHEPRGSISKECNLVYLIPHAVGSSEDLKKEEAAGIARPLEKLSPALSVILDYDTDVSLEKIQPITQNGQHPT

Target: D(1A) dopamine receptor (Homo sapiens, UniProt P21728)

**Q.** How did the pKi turn out when `OCCN1CCN(CC/C=C2/c3ccccc3Sc3ccc(C(F)(F)F)cc32)CC1` [(cis) 2-{4-[3-(2-Trifluoromethyl-thioxanthen-9-ylidene)-propyl]-piperazin-1-yl}-ethanol(Flupentixol)] was run?
**A.** The pKi was 8.40.

pKi: −log10 of the molar value.
